Experimental data as given in PubChem BioAssay AID640 (Columbia University Molecular Screening Center, 2007).
Only a part is listed here, and it is no random draw. Active and inactive are the calls of the source.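 Rule for the calls: active = inhibition at 2 µM at or above a set limit, the screen mean plus 3 SD (cut at about 24% in these data); inactive = the rest.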

The chains behind the UniProt entries cited, without tags or fusion partners.
UniProt Q9Y2R2, whole entry: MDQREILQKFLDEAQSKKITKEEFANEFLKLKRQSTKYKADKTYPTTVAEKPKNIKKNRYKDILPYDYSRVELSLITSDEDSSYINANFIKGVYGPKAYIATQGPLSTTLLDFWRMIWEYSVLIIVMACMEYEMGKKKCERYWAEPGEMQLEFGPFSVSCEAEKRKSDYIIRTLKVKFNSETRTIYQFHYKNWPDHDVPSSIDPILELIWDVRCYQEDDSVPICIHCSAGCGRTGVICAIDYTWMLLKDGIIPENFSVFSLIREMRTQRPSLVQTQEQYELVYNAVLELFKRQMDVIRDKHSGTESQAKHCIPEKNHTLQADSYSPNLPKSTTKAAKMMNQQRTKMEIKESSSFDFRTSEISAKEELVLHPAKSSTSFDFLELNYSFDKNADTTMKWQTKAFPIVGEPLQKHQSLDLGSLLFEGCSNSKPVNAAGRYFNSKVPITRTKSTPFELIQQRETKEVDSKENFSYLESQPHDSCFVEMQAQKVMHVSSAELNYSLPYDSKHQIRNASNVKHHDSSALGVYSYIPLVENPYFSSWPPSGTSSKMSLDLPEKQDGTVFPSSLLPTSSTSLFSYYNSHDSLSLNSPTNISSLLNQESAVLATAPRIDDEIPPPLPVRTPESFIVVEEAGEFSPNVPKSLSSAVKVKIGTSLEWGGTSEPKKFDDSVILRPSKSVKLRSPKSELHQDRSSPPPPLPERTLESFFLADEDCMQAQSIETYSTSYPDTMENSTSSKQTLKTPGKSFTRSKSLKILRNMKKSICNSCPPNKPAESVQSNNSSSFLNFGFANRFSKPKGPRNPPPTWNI

The compounds below were run against Tyrosine-protein phosphatase non-receptor type 22 (Homo sapiens) (UniProt Q9Y2R2) (assay: blockers of human LYP enzyme activity – biochemical, DiFMUP fluorescence, 2 µM, primary screen (AID 640;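 note: 0% = DMSO with enzyme and 100% = enzyme fully blocked by orthovanadate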)). Conditions: recombinant LYP catalytic domain, at 2 µM, active compounds read high.

Row | SMILES | inhibition
1 | CCOc1ncccc1C(=O)NCC1(N2CCOCC2)CCCCC1 | inactive: -2.3%
2 | CCC(CO)(C(=O)OC1CN2CCC1CC2)c1ccccc1 (stereo not given) | inactive: 0.6%
3 | N/C(=N\O)c1c(N)no[n+]1[O-] | inactive: -5.8%
4 | c1ccc(CN2CCC(Nc3ccccc3)CC2)cc1 | inactive: 13%
5 | N#CC1(Nc2ccccc2)CCN(CCc2ccccc2)CC1 | inactive: -1.3%
6 | O=C(NCC1(N2CCOCC2)CCCCC1)c1cc(=O)[nH]c2ccccc12 | inactive: 4%
7 | CN1CCC(Nc2cccc(F)c2)CC1 | inactive: 0.2%
8 | O=C(NCC1(N2CCOCC2)CCCCC1)c1cc2ccccc2o1 | inactive: 9.1%
9 | O=C(OC1CN2CCC1CC2)C1c2ccccc2Oc2ccccc21 (stereo not given) | inactive: -6.6%
10 | COc1ccc(NC2CCN(CCc3ccccc3)CC2)c(OC)c1 | inactive: 3%
